PubChem BioAssay AID540253 (National Center for Advancing Translational Sciences (NCATS), 2011)
Among all 340,000 compounds or so, about 240 (0.071%) were called active. Listed are the inconclusive results; actives and inactives stand elsewhere. Calls follow the shape of the full dose curve.

Sequences of proteins named here, by UniProt entry; tags and fusion partners are left off.
UniProt O95149, whole entry, looked up: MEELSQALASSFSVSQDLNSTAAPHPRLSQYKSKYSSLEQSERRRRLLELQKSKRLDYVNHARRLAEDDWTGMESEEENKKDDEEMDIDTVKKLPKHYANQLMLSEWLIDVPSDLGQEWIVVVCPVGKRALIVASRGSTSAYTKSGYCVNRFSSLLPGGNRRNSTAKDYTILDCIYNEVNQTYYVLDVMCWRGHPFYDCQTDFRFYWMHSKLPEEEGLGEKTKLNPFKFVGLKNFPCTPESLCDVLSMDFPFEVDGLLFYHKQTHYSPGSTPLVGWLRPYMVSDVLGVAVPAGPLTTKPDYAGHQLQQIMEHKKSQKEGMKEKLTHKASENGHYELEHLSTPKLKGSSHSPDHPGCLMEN
UniProt Q14974, whole entry, looked up: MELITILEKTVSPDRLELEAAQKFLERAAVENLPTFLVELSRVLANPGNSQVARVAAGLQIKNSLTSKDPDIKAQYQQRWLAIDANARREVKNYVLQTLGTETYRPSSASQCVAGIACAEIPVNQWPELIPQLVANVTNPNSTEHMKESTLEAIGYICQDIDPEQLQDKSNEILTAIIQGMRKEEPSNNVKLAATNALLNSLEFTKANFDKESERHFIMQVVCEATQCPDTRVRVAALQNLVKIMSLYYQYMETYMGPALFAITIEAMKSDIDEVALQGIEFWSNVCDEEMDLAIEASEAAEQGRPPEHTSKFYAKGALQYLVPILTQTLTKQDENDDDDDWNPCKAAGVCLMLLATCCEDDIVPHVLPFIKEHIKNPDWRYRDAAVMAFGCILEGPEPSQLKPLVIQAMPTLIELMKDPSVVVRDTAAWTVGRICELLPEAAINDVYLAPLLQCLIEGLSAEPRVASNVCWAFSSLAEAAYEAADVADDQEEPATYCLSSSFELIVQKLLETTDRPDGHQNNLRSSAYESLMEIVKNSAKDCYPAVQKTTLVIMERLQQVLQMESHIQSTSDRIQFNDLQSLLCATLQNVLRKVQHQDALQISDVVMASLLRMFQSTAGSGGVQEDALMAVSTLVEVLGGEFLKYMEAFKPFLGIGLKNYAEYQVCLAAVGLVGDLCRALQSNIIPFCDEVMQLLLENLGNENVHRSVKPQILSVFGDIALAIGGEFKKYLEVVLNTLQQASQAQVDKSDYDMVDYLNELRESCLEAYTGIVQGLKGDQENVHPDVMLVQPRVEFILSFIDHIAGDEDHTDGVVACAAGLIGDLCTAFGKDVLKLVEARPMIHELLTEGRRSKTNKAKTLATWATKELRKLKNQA

Molecular target: Snurportin-1 (Homo sapiens) + GTP-binding nuclear protein Ran (Homo sapiens) + Importin subunit beta-1 (Homo sapiens) (UniProt O95149+P62826+Q14974)
Assay: qHTS Assay for Inhibitors of RanGTP induced Rango (Ran-regulated importin-beta cargo) - Importin beta complex dissociation; also: nearly all actives have a fitted effect of over 45% in size; as to activity change, negative = inhibition: % of control where 0% means no effect
Details: Biochemical FRET Rango-importin beta; activity change, negative = inhibition: at 46.1 µM (top of the series)
Potency is read from the fitted curve at half-maximal effect.

| Structure (SMILES) | activity change, negative = inhibition | Potency |
| --- | --- | --- |
| N#C/C(=C\c1ccc(N(CCBr)CCBr)cc1)C(N)=O | inconclusive: -85% | – |
| CS(=O)(=O)c1cc([N+](=O)[O-])c2no[n+]([O-])c2c1 | – | inconclusive: 39.8 µM |
| COc1ccccc1CNC(=O)COC(=O)C(O)(c1ccccc1)c1ccccc1 | – | inconclusive: 5.01 µM |
